Article PMC7005026

Chains of the proteins cited; added tags and fusions are not shown. Lines headed by an entry give the natural chain unless they say otherwise; changes in a name come on top.
UniProt P03069: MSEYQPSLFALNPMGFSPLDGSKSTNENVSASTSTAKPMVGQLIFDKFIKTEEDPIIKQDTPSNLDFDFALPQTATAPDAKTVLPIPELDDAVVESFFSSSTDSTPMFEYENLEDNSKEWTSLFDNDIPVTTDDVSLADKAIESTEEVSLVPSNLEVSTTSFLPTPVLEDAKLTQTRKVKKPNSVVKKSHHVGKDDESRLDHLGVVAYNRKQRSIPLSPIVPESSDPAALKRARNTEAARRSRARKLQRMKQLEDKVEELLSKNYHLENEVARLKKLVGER

Assays:
[1] = molecular target: ZIP-MBPMga2 950–1062 K983 ATTO488 (FRET donor construct) (not stated | baker's yeast) (UniProt P03069); assay: FRET or BRET; detergent solution; titration with the K969^A acceptor, FRET efficiency against the molar fraction of the acceptor (Supplementary Fig. 2c, d)
[2] = molecular target: ZIP-MBPMga2 950–1062 (zipped sense-and-response construct, unlabeled wild type) (not stated | baker's yeast) (UniProt P03069); assay: SEC; 100 µg in 100 µl of the purified construct on a Superdex 200 10/300 Increase column (void volume 8.8 ml); construct isolated in OG detergent

Substance	stoichiometry N [1]	stoichiometry N [2]
ZIP-MBPMga2 950–1062 K969 ATTO590 (FRET acceptor construct) (from UniProt P03069 249-281)	2	–
ZIP-MBPMga2 950–1062 (zipped sense-and-response construct, unlabeled wild type) (from UniProt P03069 249-281)	–	2
